Legend:
Experiment in all cases: purified protein, by the assay type
Settings in all cases: pH 7.2
[1] = tested on: Nc1ncnc2c1ncn2[C@@H]1O[C@H](COP(=O)(O)O)[C@@H](O)[C@H]1O
[2] = tested on: Nc1ncnc2c1ncn2[C@@H]1O[C@H](COP(=O)(O)OP(=O)(O)O)[C@@H](O)[C@H]1O
[3] = tested on: Nc1ncnc2c1ncn2[C@@H]1O[C@H](COP(=O)(O)OP(=O)(O)OP(=O)(O)O)[C@@H](O)[C@H]1O

heat-resistant adenylate kinase of the invention, from a bacterium of the genus Bacillus (Bacillus stearothermophilus) (Geobacillus stearothermophilus)
Km [1]: 17 µM
Km [2]: 50 µM
Km [3]: 40 µM

From patent US4584272A
